Test results: US9012603B2, “Peptides that block the binding of IgG to FcRn” (Biogen Idec Hemophilia Inc., priority 2006, dated 2015)

The chains behind the UniProt entries cited, without tags or fusion partners. Residues count along the entry.
UniProt P55899, 24-297: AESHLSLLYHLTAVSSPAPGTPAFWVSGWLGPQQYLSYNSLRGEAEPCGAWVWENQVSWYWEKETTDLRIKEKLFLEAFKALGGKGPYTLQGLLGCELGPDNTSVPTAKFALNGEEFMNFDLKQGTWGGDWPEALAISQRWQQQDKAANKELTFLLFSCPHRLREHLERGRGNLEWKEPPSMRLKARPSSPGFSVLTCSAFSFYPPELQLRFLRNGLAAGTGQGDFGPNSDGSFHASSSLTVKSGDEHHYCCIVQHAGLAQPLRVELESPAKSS

What was measured:
[1] = biological target: soluble human FcRn (shFcRn) (Homo sapiens, UniProt P55899); experiment: Peptide-IgG competition ELISA; conditions: 3 nM human IgG, pH 6
soluble human FcRn = soluble human FcRn (Homo sapiens, UniProt P55899); experiment: Equilibrium binding constants (KD) by surface plasmon resonance (Biacore)

With QRFCTGHFGALYPCNGP [SEQ ID NO: 32] the IC50 [1] was > 125 µM.

For “QRF-Pen-TGHFGGL-(2-pyridylAla)-PCNGP [Peptide No. 66]”, the IC50 [1] was > 125 µM.

With “QRF-Pen-TGHF-G-h-LYPCNGP [Peptide No. 42]” the IC50 [1] was 12 µM, the Kd (soluble human FcRn; read-out: KD (pH 6), pH 6) was 2 µM and the Kd (soluble human FcRn; read-out: KD pH 7.4, pH 7.4) was 20 µM.

RF-Pen-TGHFGGLYPC [Peptide No. 99] was tested, and the IC50 [1] was 2 µM, the Kd (soluble human FcRn; read-out: KD (pH 6), pH 6) was 0.17 µM and the Kd (soluble human FcRn; read-out: KD pH 7.4, pH 7.4) was 3.4 µM.

“AGNSFCRGRPGHFGGCYLFGTGGGK [SEQ ID NO: 10]” gave an IC50 [1] of 33 µM.

Substance “QRF-Pen-TGHF-i-G-LYPCNGP [Peptide No. 51]” has an IC50 [1] of 9.4 µM and a Kd (soluble human FcRn; read-out: KD (pH 6), pH 6) of 2.6 µM.

For “QRF-Pen-TGHF-y-G-LYPCNGP [Peptide No. 53]”, the IC50 [1] was 3.2 µM and the Kd (soluble human FcRn; read-out: KD (pH 6), pH 6) was 0.32 µM.

“QRF-V-TGHF-G-p-LYP-W-NGP [Peptide No. 172]” showed an IC50 [1] of 150 µM.

In the case of “QRF-Pen-TGH-(4-MePhe)-GGLYPCNGP [Peptide No. 90]”, the IC50 [1] is reported as 1.7 µM and the Kd (soluble human FcRn; read-out: KD (pH 6), pH 6) is reported as 0.2 µM.

In the case of QRF-C-TGHFGGLYP-c-NGP [Peptide No. 30], the Kd (soluble human FcRn; read-out: KD (pH 6), pH 6) is reported as 31 µM.

For “RF-Pen-TGHF-q-Sar-NMeLeu-YPC [Peptide No. 245]”, the IC50 [1] was 4.5 µM and the Kd (soluble human FcRn; read-out: KD (pH 6), pH 6) was 0.36 µM.

In the case of “QRF-Pen-TGHFGG-M-YPCNGP [Peptide No. 117]”, the IC50 [1] is reported as 7.7 µM and the Kd (soluble human FcRn; read-out: KD (pH 6), pH 6) is reported as 0.44 µM.

Substance “QRF-Pen-TGHFG-Sar-NMeLeu-YPCNGP [Peptide No. 187]” has an IC50 [1] of 0.42 µM, a Kd (soluble human FcRn; read-out: KD (pH 6), pH 6) of 0.046 µM and a Kd (soluble human FcRn; read-out: KD pH 7.4, pH 7.4) of 0.23 µM.

In the case of “RF-Pen-TG-2PyridylAla-FG-Sar-NMeL-YPC [Peptide No. 249]”, the IC50 [1] is reported as 6.2 µM, the Kd (soluble human FcRn; read-out: KD (pH 6), pH 6) is reported as 0.33 µM and the Kd (soluble human FcRn; read-out: KD pH 7.4, pH 7.4) is reported as 0.41 µM.

In the case of “RF-Pen-TGHFG-Sar-NMeLeu-YPC [Peptide No. 235]”, the IC50 [1] is reported as 0.49 µM.

With “QRF-Asp-TGHFGGLYP-Dab-NGP [Peptide No. 38]” the IC50 [1] was 68 µM, the Kd (soluble human FcRn; read-out: KD (pH 6), pH 6) was 17 µM and the Kd (soluble human FcRn; read-out: KD pH 7.4, pH 7.4) was 150 µM.

For QRFCTGHF-Apa-LYPCNGP [Peptide No. 35], the IC50 [1] was > 125 µM.

“QRF-Pen-TGH-(Cha)-GGLYPCNGP [Peptide No. 93]” showed an IC50 [1] of 31 µM and a Kd (soluble human FcRn; read-out: KD (pH 6), pH 6) of 4.5 µM.

“QRF-Pen-TG-Dap(Guanyl)-FGGLYPCNGP [Peptide No. 297]” was tested, and the IC50 [1] was 54 µM, the Kd (soluble human FcRn; read-out: KD (pH 6), pH 6) was 13 µM and the Kd (soluble human FcRn; read-out: KD pH 7.4, pH 7.4) was 16 µM.

“RF-Pen-TGFFG-Sar-NMeLeu-YPC [Peptide No. 265]” showed an IC50 [1] of 27 µM, a Kd (soluble human FcRn; read-out: KD (pH 6), pH 6) of 3.3 µM and a Kd (soluble human FcRn; read-out: KD pH 7.4, pH 7.4) of 4.2 µM.

With “QRF-Pen-T-Sar-HFGGLYP-C-NGP [Peptide No. 108]” the IC50 [1] was > 125 µM and the Kd (soluble human FcRn; read-out: KD (pH 6), pH 6) was 88 µM.

“QRF-Pen-TGHFG-Sar-W-YPCNGP [Peptide No. 238]” was tested, and the IC50 [1] was 1 µM and the Kd (soluble human FcRn; read-out: KD (pH 6), pH 6) was 0.068 µM.

Work on “QRF-Pen-TGHF-p-G-LYPCNGP [Peptide No. 48]” yielded an IC50 [1] of 5 µM, a Kd (soluble human FcRn; read-out: KD (pH 6), pH 6) of 0.79 µM and a Kd (soluble human FcRn; read-out: KD pH 7.4, pH 7.4) of 21 µM.

“QRF-Pen-TGHF-a-Sar-NMeLeu-YPCNGP [Peptide No. 188]” gave an IC50 [1] of 6.5 µM and a Kd (soluble human FcRn; read-out: KD (pH 6), pH 6) of 0.73 µM.

“RF-Pen-TG-Dab-FG-Sar-NMeL-YPC [Peptide No. 253]” was tested, and the IC50 [1] was 16 µM, the Kd (soluble human FcRn; read-out: KD (pH 6), pH 6) was 1.2 µM and the Kd (soluble human FcRn; read-out: KD pH 7.4, pH 7.4) was 1.2 µM.

Substance “QRF-Pen-TGHFG-Sar-LYPCNGP [Peptide No. 112]” has an IC50 [1] of 0.9 µM.

“QRF-Pen-TGH-(1-napthylalanine)-GGLYPCNGP [Peptide No. 61]” was tested, and the IC50 [1] was 13 µM and the Kd (soluble human FcRn; read-out: KD (pH 6), pH 6) was 2.2 µM.

Like-named read-outs stand apart in the source and are kept apart here.
